In publication doi:10.1101/2025.07.23.666285:

Target: stapled Myc_B1 peptide
Experiment: BLI

Kd: 39 nM
Substance: truncated WDR5 (amino acids 22–334) (from UniProt P61964 22-334) (domain or fragment)
